Target: Dihydroorotate dehydrogenase (quinone), mitochondrial (Homo sapiens, UniProt Q02127)

Chains of the proteins cited; added tags and fusions are not shown. Lines headed by an entry give the natural chain unless they say otherwise; changes in a name come on top.
UniProt Q02127: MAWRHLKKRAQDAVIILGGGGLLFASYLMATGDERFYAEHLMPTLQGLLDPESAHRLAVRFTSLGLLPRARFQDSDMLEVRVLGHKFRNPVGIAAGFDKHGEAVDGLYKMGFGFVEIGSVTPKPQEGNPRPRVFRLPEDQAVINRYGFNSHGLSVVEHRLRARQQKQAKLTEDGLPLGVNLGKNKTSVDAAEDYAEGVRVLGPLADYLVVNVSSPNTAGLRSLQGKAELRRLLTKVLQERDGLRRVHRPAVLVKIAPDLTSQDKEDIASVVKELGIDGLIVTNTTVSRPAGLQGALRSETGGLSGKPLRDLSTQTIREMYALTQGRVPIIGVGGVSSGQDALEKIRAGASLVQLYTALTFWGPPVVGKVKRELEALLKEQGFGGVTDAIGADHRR

Q: For `Cc1cc(Nc2ccc(S(F)(F)(F)(F)F)cc2)n2nc(C(F)(F)F)nc2n1`, which IC50 is on record?
A: The IC50 was 41 µM.

From ChEMBL document CHEMBL1955725, “Structure-guided lead optimization of triazolopyrimidine-ring substituents identifies potent Plasmodium falciparum dihydroorotate dehydrogenase inhibitors with clinical candidate potential” (J Med Chem, 2011)
